Tests used:
[1] = target: T1, cloned human κ-opioid receptor (Homo sapiens, UniProt P41145); test: Inhibition of U69,593-stimulated [35S]GTPγS binding
[2] = target: T1, cloned human κ-opioid receptor; test: Intrinsic activity in the [35S]GTPγS binding assay; type: biochemical; design: expressed in transfected cells; host or cells: CHO cells; conditions: at 10 μM
[3] = target: T2, cloned human δ-opioid receptor (Homo sapiens, UniProt P41143); test: Intrinsic activity in the [35S]GTPγS binding assay; type: biochemical; conditions: at 10 μM
T2 construct: expressed in transfected cells; host or cells: CHO cells

By UniProt entry, the sequences of proteins in these tests, tags left out. Where a name states a change or a piece, a line headed by the entry shows the natural chain unless it says otherwise.
UniProt P41145: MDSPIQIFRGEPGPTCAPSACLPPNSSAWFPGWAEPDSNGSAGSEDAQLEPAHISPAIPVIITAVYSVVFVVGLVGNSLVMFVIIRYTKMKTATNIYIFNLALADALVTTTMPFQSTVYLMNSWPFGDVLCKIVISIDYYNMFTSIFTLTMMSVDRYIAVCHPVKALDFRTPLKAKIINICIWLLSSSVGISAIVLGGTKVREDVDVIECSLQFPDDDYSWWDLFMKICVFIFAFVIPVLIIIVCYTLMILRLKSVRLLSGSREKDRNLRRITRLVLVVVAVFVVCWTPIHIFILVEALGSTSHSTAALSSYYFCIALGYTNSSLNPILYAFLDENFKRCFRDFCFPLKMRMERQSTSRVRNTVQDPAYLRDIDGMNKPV
UniProt P35372, whole entry: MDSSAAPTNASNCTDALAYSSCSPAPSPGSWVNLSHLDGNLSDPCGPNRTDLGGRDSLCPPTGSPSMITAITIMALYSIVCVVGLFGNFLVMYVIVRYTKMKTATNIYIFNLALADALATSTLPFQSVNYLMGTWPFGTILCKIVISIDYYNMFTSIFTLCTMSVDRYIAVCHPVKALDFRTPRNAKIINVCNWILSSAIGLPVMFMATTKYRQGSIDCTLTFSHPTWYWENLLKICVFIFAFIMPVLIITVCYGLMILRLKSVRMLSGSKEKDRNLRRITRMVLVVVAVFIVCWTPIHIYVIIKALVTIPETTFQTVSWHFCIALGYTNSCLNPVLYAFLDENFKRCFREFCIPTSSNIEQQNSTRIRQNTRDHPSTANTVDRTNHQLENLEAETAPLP

[4] = target: T3, cloned human μ-opioid receptor (Homo sapiens, UniProt P35372); test: Intrinsic activity in the [35S]GTPγS binding assay; type: biochemical; conditions: at 10 μM
T3 construct: expressed in transfected cells; host or cells: CHO cells

## Oc1ccc2c3c1O[C@H]1c4[nH]c5c(c4C[C@@]4(O)[C@@H](C2)N(CC2CC2)CC[C@]314)C[C@@]1(O)[C@H]2Cc3ccc(O)c4c3[C@@]1(CCN2CC1CC1)[C@H]5O4 [Compound 1, nor-BNI, reference compound]
[1]; antagonism of U69,593-stimulated [35S]GTPγS binding, CHO cells, means ± SE, at least three experiments
  κ, U69,593 Ke: 0.05 ± 0.02 nM
[1]; ratio of Ke values, κ selectivity relative to δ
  δ/κ: 580
[1]; ratio of Ke values, κ selectivity relative to μ
  μ/κ: 520
[2]
  intrinsic activity at the κ opioid receptor: none of the compounds displayed measurable intrinsic activity
[3]
  intrinsic activity at the δ opioid receptor: none of the compounds displayed measurable intrinsic activity
[4]
  intrinsic activity at the μ opioid receptor: none of the compounds displayed measurable intrinsic activity

Source: patent publication US20130158072A1, “KAPPA OPIOID RECEPTOR BINDING LIGANDS” (Research Triangle Institute, priority 2010, published 2013)
